Screens (PubChem BioAssay)
An excerpt weighted towards active compounds, which were near 2.8% of everything screened.
Yeast UUG start = modulators of yeast start codon fidelity, primary screen, whole organism, S. cerevisiae, single point, plate reader; S. cerevisiae UUG-firefly luciferase reporter, luminescence/redox ratio; activity score, % at 18.7 µM; 0.13% of 350,000 active; AID 602363, 2012;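 active = replicate mean at a twofold rise or more, about +100% in these data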;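 also: firefly luciferase made from a UUG start codon reports start codon fidelity; reporter light over untreated wells divided by growth signal over untreated wells; some hits fall short of that in this replicate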
miR122 inh = miR-122 Renilla sensor signal increase in Huh7, primary screen, miR-122 inhibitor project, cell-based, single point, plate reader; Huh7 miR-122 Renilla luciferase sensor, 48 h; neutral wells = 0, positive control = 100; activation (reporter increase), % at 12.5 µM; 340,000 compounds, 0.3% hits;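 active = mean replicate activation score at least 90 and every replicate individually at or above 90; inconclusive = only one of the two criteria met; inactive = neither criterion met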;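 note: higher luciferase means less miR-122 activity so hits act as miR-122 inhibitors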
Wnt act = Wnt/beta-catenin pathway activators, primary screen, cell-based, plate reader, single point | Wnt/beta-catenin reporter cell assay, activator | activation, % at 9.35 µM | 300,000 compounds, 1.2% hits; in the data active = activation above about 30%, passing the limit was not always enough; inconclusive = no clear call, values can overlap the other calls;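 note: 0% = neutral control wells and 100% = positive control wells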
MITF act = activators of MITF-driven TRPM1 promoter reporter, primary screen, cell-based, SK-MEL-5, luciferase, single point. 300,000 compounds, 0.75% hits. AID 588334, 2011. activation, % at 12.5 µM. SK-MEL-5 TRPM1-promoter luciferase, 24 h; % of positive control, neutral wells = 0;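 active = mean activation of at least 80% with every replicate also reaching 80%; inconclusive = mean reaches 80% but some replicate falls short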;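 note: 0% = neutral control wells and 100% = parthenolide positive control wells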
esBAF inh = Bmi1 luciferase reporter increase in mESCs, primary screen, esBAF inhibitor project, mouse ES cells, Bmi1 luciferase knock-in, single point. AID 602393, 2012. reporter increase, % at 12.5 µM. 24 h; 100% = twice the neutral-well signal. 350,000 compounds, 2% hits; in the data active = activation above about 40%; inconclusive = no clear call, values can overlap the other calls;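 note: 0% = median of the plate's neutral control wells and 100% = double that signal; a rise in the Bmi1 reporter signal indicates esBAF inhibition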
PglD inh = C. jejuni PglD acetyltransferase inhibitors, primary screen, biochemical, DTNB colorimetric, single point | inhibition, % at 12.5 µM | purified PglD enzyme, DTNB colorimetric CoA detection | AID 602405, 2012 | 360,000 compounds, 0.098% hits | UDP-N-acetylbacillosamine N-acetyltransferase PglD (Campylobacter jejuni); in the data active = inhibition above about 16%, passing the limit was not always enough; inconclusive = no clear call, values can overlap the other calls
* marks the source's active call; other numbers are inactive results; ? = inconclusive; . = no result given; [ ] = dose if it differs, or a comment.

Yeast UUG start,miR122 inh,Wnt act,MITF act,esBAF inh,PglD inh,molecule
-22,3,.,27,55*,5,CC(=O)c1ccc(-c2nc3ccccc3n2C)o1
.,.,6,12,.,.,Nc1ccc(Br)cc1-c1nc2ccccc2[nH]c1=O
-8,-6,9,61,53*,0,Nc1ccccc1-c1nc2ccccc2[nH]c1=O
-8,12,10,59,49*,-5,CC1=C(C(=O)Nc2ccc(CC(=O)NCc3ccccc3C)cc2)SCCO1
.,.,2,18,.,.,COc1ccc2oc(C(=O)OCC(=O)Nc3ccc(N4CCOCC4)cc3)c(C)c2c1
-13,-3,-2,.,79*,-2,COc1ccc2oc(C(=O)OCC(=O)Nc3ccc(C)c(S(=O)(=O)N4CCOCC4)c3)c(C)c2c1
5,0[16.7 µM],.,.,-10,5,C[C@@H]1CN([C@H](C)CO)C(=O)c2cc(NS(C)(=O)=O)ccc2O[C@@H](C)CCCCO[C@@H]1CN(C)Cc1ccc2c(c1)OCO2
18,-9,-3,-1,-6,3,COC(=O)c1cc(Cl)cc2c(C)c(C3(O)CCCCC3)[nH]c12
-12,-15,25,74,66*,2,COC(=O)c1ccc2c(C)c(C3(O)CCCCC3)[nH]c2c1
-8,-2,3,.,42*,2,Cc1cccc(NC(=O)C(=O)NCC2CCCN2S(=O)(=O)c2cccs2)c1 (stereo unspecified)
-2,-4,63*,?,36,-2,Cc1ccc(C2=N/C(=C\N3CCCCC3)C(=O)O2)cc1
-3,1,.,92*,52*,4,Cc1ccc(C2=N/C(=C/N3CCOCC3)C(=O)O2)cc1
3,1,0,-11,5,-2,COc1ccc(/C=C2\N=C(c3ccc(C)cc3)OC2=O)cc1
-6,.,.,.,-4,2,O=C(C[C@H]1CC[C@H](NC(=O)C2CCOCC2)[C@@H](CO)O1)Nc1nccs1
-7,2,29,99*,51*,-10,CN(C)C(CNC(=O)c1cc2ccccc2oc1=O)c1ccccc1 (stereo unspecified)

Among those listed so far, 5 have sulfur.
Yeast UUG start,miR122 inh,Wnt act,MITF act,esBAF inh,PglD inh,molecule
-8,12,10,59,49*,-5,CC1=C(C(=O)Nc2ccc(CC(=O)NCc3ccccc3C)cc2)SCCO1
-13,-3,-2,.,79*,-2,COc1ccc2oc(C(=O)OCC(=O)Nc3ccc(C)c(S(=O)(=O)N4CCOCC4)c3)c(C)c2c1
5,0[16.7 µM],.,.,-10,5,C[C@@H]1CN([C@H](C)CO)C(=O)c2cc(NS(C)(=O)=O)ccc2O[C@@H](C)CCCCO[C@@H]1CN(C)Cc1ccc2c(c1)OCO2
-8,-2,3,.,42*,2,Cc1cccc(NC(=O)C(=O)NCC2CCCN2S(=O)(=O)c2cccs2)c1 (stereo unspecified)
-6,.,.,.,-4,2,O=C(C[C@H]1CC[C@H](NC(=O)C2CCOCC2)[C@@H](CO)O1)Nc1nccs1

(more compounds)
Yeast UUG start,miR122 inh,Wnt act,MITF act,esBAF inh,PglD inh,molecule
-7,2,.,43,36,-4,Cc1ccc(CN(C(=O)c2cc3ccccc3oc2=O)C2CCS(=O)(=O)C2)cc1 (stereo unspecified)
-15,1,.,.,86*,-2,CCc1ccc(CN(C(=O)c2cc3ccccc3oc2=O)C2CCS(=O)(=O)C2)cc1 (stereo unspecified)
-8,-1,-6,.,?,0,O=C(c1cc2ccccc2oc1=O)N(Cc1ccc(F)cc1)C1CCS(=O)(=O)C1 (stereo unspecified)
-21,-12,7,.,47*,-6,CC(C)N(Cc1ccc(F)cc1)C(=O)c1cc2ccccc2oc1=O
-10,1,47*,12,?,-6,Cc1cccnc1NC(=O)c1cc2ccccc2oc1=O
3,3,12,59,27,-2,O=C(NCc1ccccc1)c1cc2ccccc2oc1=O
-17,0[16.7 µM],.,.,14,-1,C[C@H](CO)N1C[C@H](C)[C@@H](CN(C)C(=O)Nc2cccc3ccccc23)OCCCC[C@H](C)Oc2ccc(NC(=O)Nc3ccc4c(c3)OCO4)cc2C1=O
-1,-1[16.7 µM],.,.,3,-1,C[C@@H]1CN([C@@H](C)CO)C(=O)c2cc(-c3ccc(C#N)cc3)cnc2O[C@@H]1CN(C)C(=O)c1ccccc1
-6,155*,.,.,23,-1,O=C(Nc1cc(S(=O)(=O)N2CCOCC2)ccc1Cl)C(=O)c1c(-c2ccccc2)cc2ccccn12
-17,-1,-2,-8,0,-3,CC(C)(C)N1CC(C(=O)Nc2ccc(S(=O)(=O)N3CCCCC3)cc2)CC1=O (stereo unspecified)
-19,7,33*,48,30,3,CCC1CCCCN1S(=O)(=O)c1ccc(NC(=O)C2CC(=O)N(C(C)(C)C)C2)cc1 (stereo unspecified)
.,.,.,.,-15,-1,CO[C@H]1CN(C)C(=O)c2cc(NC(=O)c3ccccc3F)ccc2OC[C@H](C)N(C(C)=O)C[C@H]1C
-16,-2,4,98*,70*,7,O=C(N[C@H]1/C=C\[C@@H](O)CCCC1)OCc1ccccc1
-11,6,46*,.,-13,-5,Cc1cccc(-c2noc(-c3csc([C@@H]4C[C@H](O)[C@@H](CO)O4)n3)n2)c1
-34,5,10,.,-25,-1,OC[C@H]1O[C@H](c2nc(-c3nc(-c4cccs4)no3)cs2)C[C@@H]1O
5,1,39*,.,71*,1,COc1cc(OC)cc(-c2noc(-c3csc([C@H]4C[C@H](O)[C@@H](CO)O4)n3)n2)c1
-10,3,.,-2,-1,-2,Cc1ccc(Cn2c(SCC(=O)NCc3ccco3)nc3ccsc3c2=O)cc1
-8,-6,34*,14,6,1,Cc1ccc(CNC(=O)CSc2nc3ccsc3c(=O)n2Cc2ccccn2)cc1
-7,9,9,.,54*,0,COC(=O)c1ccc(CSc2ccccc2NC(=S)Nc2cccc(SC)c2)o1
-24,-6,1,18,-2,4,COC(=O)c1cccc(NC(=S)Nc2ccccc2Cl)c1
.,16[16.7 µM],.,.,2,-1,CC(C)NC(=O)N(C)C[C@H]1Oc2cc(C#C[C@@H](C)O)ccc2S(=O)(=O)N([C@@H](C)CO)C[C@@H]1C
3,-3[16.7 µM],.,.,1,-2,C[C@H]1CN([C@@H](C)CO)S(=O)(=O)c2ccc(-c3cccc(C#N)c3)cc2O[C@H]1CN(C)C(=O)c1ccncc1
.,.,12,84*,.,.,CN(C)CCCN=c1cc(-c2ccccc2)oc2ccc(Cl)cc12
-9,4,18,65,46*,-7,OCCN=c1cc(-c2ccccc2)oc2ccc(Cl)cc12
-8,.,.,?,-9,-3,CC(O)CN=c1cc(-c2ccccc2)oc2ccc(Cl)cc12 (stereo unspecified)
.,-9[16.7 µM],.,.,-5,0,CN(C)CCCNC(=O)[C@H]1[C@H](CO)[C@H]2Cn3c(ccc(-c4cccc(F)c4)c3=O)[C@@H]1N2C
.,.,.,.,-2,0,CO[C@@H]1CN(C)C(=O)c2ccc(NC(C)=O)cc2OC[C@H](C)N(C(=O)Cc2ccccn2)C[C@H]1C
-65,.,67*,75,15,-4,Cc1nn(C(=O)c2ccc3c(c2)OCO3)c(N)c1-c1ccccc1
-22,-3,-3,5,2,1,CC(=O)c1c(C)nn(C(=O)c2cccs2)c1C
